Most compounds without a hit are left out; they make up all but 2.1% or so of the library.
Wnt bcat act: activates Wnt/beta-catenin signaling in a reporter cell assay; activator, plate reader; activation, % at 9.35 µM; 300,000 compounds, 1.2% hits; AID 743398; in the data active means activation above about 30%, passing the limit was not always enough; inconclusive means no clear call, values can overlap the other calls;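 further: 0% = neutral control wells and 100% = positive control wells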
TRPM1 prom inh: reduces MITF-dependent TRPM1 promoter luciferase signal | 330,000 compounds, 0.83% hits | inhibition, % at 12.5 µM | SK-MEL-5 TRPM1 promoter luciferase, 24 h | AID 488899;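 active means mean inhibition across replicates of 60% or more, whatever share of single replicates reaches that level; inconclusive means some that reach 60%, reason not given; inactive means mean inhibition across replicates below 60%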
PGC1a acetyl inh: modulators of PGC1a acetylation; inhibition, % at 15.6 µM; 350,000 compounds, 0.17% hits; U2OS PGC1a acetylation, AlphaScreen anti-acetyl-lysine; with virally co-expressed GCN5 acetyltransferase;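 active means every replicate shows inhibition of at least 40%; inconclusive means mean inhibition at least 40% but some replicate below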;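 further: 0% = neutral control wells and 100% = positive control wells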
UUG fidelity: modulators of yeast start codon fidelity, primary screen, whole organism, S. cerevisiae, single point, plate reader | AID 602363, 2012 | S. cerevisiae UUG-firefly luciferase reporter, luminescence/redox ratio | activity score, % at 18.7 µM | hit rate 0.13% among 350,000;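 active = replicate mean at a twofold rise or more, about +100% in these data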;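 also: firefly luciferase made from a UUG start codon reports start codon fidelity; reporter light over untreated wells divided by growth signal over untreated wells; some hits fall short of that in this replicate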
miR-122 sensor: miR-122 inhibition in Huh7 cells | Huh7 miR-122 Renilla luciferase sensor, 48 h; neutral wells = 0, positive control = 100 | activation (reporter increase), % at 12.5 µM | 340,000 compounds, 0.3% hits | AID 602342;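 active means mean replicate activation score at least 90 and every replicate individually at or above 90; inconclusive means only one of the two criteria met; inactive means neither criterion met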;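 further: higher luciferase means less miR-122 activity so hits act as miR-122 inhibitors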
MITF TRPM1 HTS: activators of MITF-driven TRPM1 promoter activity in SK-MEL-5 cells; SK-MEL-5 TRPM1-promoter luciferase, 24 h; % of positive control, neutral wells = 0; activation, % at 12.5 µM; 300,000 compounds, 0.75% hits; AID 588334;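 active means mean activation of at least 80% with every replicate also reaching 80%; inconclusive means mean reaches 80% but some replicate falls short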;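 further: 0% = neutral control wells and 100% = parthenolide positive control wells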
* marks the source's active call; other numbers are inactive results; [ ] = another dose, or the depositor's remark.

What do the screens show for `CC(=O)Nc1nc2ccc(S(=O)(=O)N3CCCC3)cc2s1`?
Wnt bcat act: -1.7; TRPM1 prom inh: -6.8; UUG fidelity: -13.2; miR-122 sensor: -4.1; MITF TRPM1 HTS: 0.4

What do the screens show for `CCOc1ccc2nc(NC(=O)CS(=O)(=O)c3ccccc3)sc2c1`?
TRPM1 prom inh: -20.5; PGC1a acetyl inh: -20.2; UUG fidelity: -16.2; miR-122 sensor: -1.2; MITF TRPM1 HTS: 29.2

Results for CCCC(=O)Nc1nc2ccc(S(=O)(=O)N3CCCCC3)cc2s1 ?
Wnt bcat act: -3.2; TRPM1 prom inh: 13.2; PGC1a acetyl inh: -4.7; UUG fidelity: -23.8; miR-122 sensor: 117.8*; MITF TRPM1 HTS: -14.8

Results for CCCC(=O)Nc1nc2ccc(OCC)cc2s1 ?
Wnt bcat act: 41.1*; TRPM1 prom inh: -98.2; PGC1a acetyl inh: -6.4; UUG fidelity: -2.5; miR-122 sensor: 4.8; MITF TRPM1 HTS: 96.5*

How did Cc1nn(-c2ccccc2)c(N)c1N=Nc1ccccc1 do in these assays?
Wnt bcat act: 0.2; TRPM1 prom inh: -48.1; MITF TRPM1 HTS: 42.8

How did O=c1cc(-c2ccccc2)[nH]n1-c1nc2ccccc2[nH]1 do in these assays?
TRPM1 prom inh: 14.6; PGC1a acetyl inh: -7.6; UUG fidelity: -26.6; miR-122 sensor: -1.7; MITF TRPM1 HTS: -13.1

How did Cc1nn(-c2nc3ccccc3[nH]2)c(N)c1-c1ccccc1 do in these assays?
Wnt bcat act: 54.8*; TRPM1 prom inh: -65.0; PGC1a acetyl inh: -4.6; UUG fidelity: -26.4; miR-122 sensor: 8.7; MITF TRPM1 HTS: 68.5

What do the screens show for `Cc1nn(-c2ccccc2)c(/N=C/c2ccccc2O)c1-c1ccccc1`?
Wnt bcat act: 129.0*; TRPM1 prom inh: -51.3; MITF TRPM1 HTS: 55.9

How did Cc1nn(-c2ccccc2)c(C)c1/C=N/O do in these assays?
TRPM1 prom inh: -5.7; PGC1a acetyl inh: 5.9; UUG fidelity: -30.3; miR-122 sensor: -6.7; MITF TRPM1 HTS: 2.3

What do the screens show for `Cc1nn(-c2ccccc2)c(N)c1-c1ccccc1`?
Wnt bcat act: inconclusive; TRPM1 prom inh: -105.1; PGC1a acetyl inh: -4.5; UUG fidelity: -7.3; miR-122 sensor: -3.3; MITF TRPM1 HTS: 114.3*

Results for C[C@@H]1CN([C@H](C)CO)C(=O)c2cc(NS(C)(=O)=O)ccc2O[C@@H](C)CCCCO[C@@H]1CN(C)Cc1ccccc1 ?
PGC1a acetyl inh: 17.4; UUG fidelity: -1.7; miR-122 sensor: 1.5[16.7 µM]

What do the screens show for `CO[C@@H]1CN(C)C(=O)c2ccc(NC(=O)C3CCOCC3)cc2OC[C@@H](C)N(C)C[C@H]1C`?
PGC1a acetyl inh: -2.5; miR-122 sensor: 13.6[16.7 µM]

How did CCCC(=O)N=C1SC2CS(=O)(=O)CC2N1c1ccc(-c2nc3ccc(C)cc3s2)cc1 (stereo unspecified) do in these assays?
Wnt bcat act: 33.7*; TRPM1 prom inh: -55.4; PGC1a acetyl inh: -11.0; UUG fidelity: -3.9; miR-122 sensor: 2.9; MITF TRPM1 HTS: 57.1

What do the screens show for `Cc1ccc(N2C(=NC(=O)c3ccccc3)SC3CS(=O)(=O)CC32)cc1` (stereo unspecified)?
Wnt bcat act: 0.3; TRPM1 prom inh: 3.0; PGC1a acetyl inh: -3.0; UUG fidelity: -8.8; miR-122 sensor: -1.3; MITF TRPM1 HTS: 0.9

What do the screens show for `Clc1ccc(OCc2nc3ccccc3[nH]2)cc1`?
Wnt bcat act: 10.9; TRPM1 prom inh: -82.2; PGC1a acetyl inh: 4.6; UUG fidelity: -29.4; miR-122 sensor: -1.2; MITF TRPM1 HTS: 88.0*

Three structures out of the list, sorted by SMILES length, lowest first.
How did O=c1cc(-c2ccccc2)[nH]n1-c1nc2ccccc2[nH]1 do in these assays?
TRPM1 prom inh: 14.6; PGC1a acetyl inh: -7.6; UUG fidelity: -26.6; miR-122 sensor: -1.7; MITF TRPM1 HTS: -13.1

What do the screens show for `CCOc1ccc2nc(NC(=O)CS(=O)(=O)c3ccccc3)sc2c1`?
TRPM1 prom inh: -20.5; PGC1a acetyl inh: -20.2; UUG fidelity: -16.2; miR-122 sensor: -1.2; MITF TRPM1 HTS: 29.2

Results for C[C@@H]1CN([C@H](C)CO)C(=O)c2cc(NS(C)(=O)=O)ccc2O[C@@H](C)CCCCO[C@@H]1CN(C)Cc1ccccc1 ?
PGC1a acetyl inh: 17.4; UUG fidelity: -1.7; miR-122 sensor: 1.5[16.7 µM]

Next records.
How did O=S(=O)(CCc1nc2ccccc2[nH]1)c1ccc(Cl)cc1 do in these assays?
Wnt bcat act: -1.6; TRPM1 prom inh: 5.3; UUG fidelity: 1.2; MITF TRPM1 HTS: -4.2

Results for Cc1ccc(OCc2nc3ccccc3[nH]2)cc1 ?
Wnt bcat act: 18.3; TRPM1 prom inh: -19.1; PGC1a acetyl inh: 0.5; UUG fidelity: -34.6; miR-122 sensor: 0.1; MITF TRPM1 HTS: 24.9

How did COc1cccc(CSc2nc3ccccc3[nH]2)c1 do in these assays?
Wnt bcat act: 59.2*; TRPM1 prom inh: -79.1; PGC1a acetyl inh: 7.6; miR-122 sensor: 1.6; MITF TRPM1 HTS: 73.7

Results for c1ccc(OCCSc2nc3ccccc3[nH]2)cc1 ?
TRPM1 prom inh: -86.1; PGC1a acetyl inh: -10.2; miR-122 sensor: -0.1; MITF TRPM1 HTS: 87.6*

What do the screens show for `c1ccc(OCc2nc3ccccc3[nH]2)cc1`?
Wnt bcat act: 62.0*; TRPM1 prom inh: -65.5; PGC1a acetyl inh: -3.5; UUG fidelity: -15.6; miR-122 sensor: 6.0

What do the screens show for `O=C(C[C@@H]1CC[C@H](NS(=O)(=O)c2ccc(F)cc2)[C@@H](CO)O1)NCCN1CCCCC1`?
PGC1a acetyl inh: 7.8; UUG fidelity: 2.5

How did O=C([C@H]1[C@H](CO)[C@H]2Cn3c(ccc(C4=CCCC4)c3=O)[C@@H]1N2)N1CCCCC1 do in these assays?
UUG fidelity: 0.5; miR-122 sensor: 4.2[16.7 µM]

What do the screens show for `C[C@H]1CCCCO[C@H](CN(C)C(=O)C2CCCCC2)[C@@H](C)CN([C@@H](C)CO)C(=O)c2cc(NC(=O)Nc3ccc4c(c3)OCO4)ccc2O1`?
PGC1a acetyl inh: 5.9; UUG fidelity: -12.6; miR-122 sensor: -7.8[16.7 µM]

Results for COc1ccc(CN(C)C(C)C(=O)Nc2ccc(S(=O)(=O)N3CCCCC3)cc2)cc1F (stereo unspecified) ?
Wnt bcat act: 34.4*; TRPM1 prom inh: 4.3; PGC1a acetyl inh: -9.8; UUG fidelity: -17.2; MITF TRPM1 HTS: -2.7

What do the screens show for `CCc1ccc(S(=O)(=O)/N=C2/C=C(Sc3ncn[nH]3)C(=O)c3ccccc32)cc1`?
TRPM1 prom inh: 70.0*; MITF TRPM1 HTS: -68.3

What do the screens show for `CCc1ccc(S(=O)(=O)/N=C2\C=C(Nc3ccc(O)cc3)C(=O)c3ccccc32)cc1`?
TRPM1 prom inh: 99.9*; PGC1a acetyl inh: 63.4*; UUG fidelity: -21.0; miR-122 sensor: -9.6; MITF TRPM1 HTS: -99.0

Results for O=C(O)c1ccc(NC2=C/C(=N/S(=O)(=O)c3ccccc3)c3ccccc3C2=O)cc1 ?
Wnt bcat act: -13.0; TRPM1 prom inh: 62.7*; PGC1a acetyl inh: 3.5; miR-122 sensor: 19.2; MITF TRPM1 HTS: -61.1

Results for CCc1ccc(S(=O)(=O)/N=C2\C=C(Nc3cccc(C(=O)O)c3)C(=O)c3ccccc32)cc1 ?
Wnt bcat act: 8.9; TRPM1 prom inh: 20.2; UUG fidelity: -16.8; miR-122 sensor: 1.5; MITF TRPM1 HTS: -22.9

What do the screens show for `Cc1cc(C)c(S(=O)(=O)/N=C2\C=C(Nc3ccc(C(=O)O)cc3)C(=O)c3ccccc32)c(C)c1`?
Wnt bcat act: 8.7; TRPM1 prom inh: 77.8*; PGC1a acetyl inh: 12.6; UUG fidelity: -23.4; miR-122 sensor: 32.1; MITF TRPM1 HTS: -80.1

How did COCC(=O)Nc1ccc2c(c1)C(=O)N(C)C[C@H](OC)[C@@H](C)CN(C(=O)NC(C)C)[C@@H](C)CO2 do in these assays?
PGC1a acetyl inh: 6.3; UUG fidelity: -2.5; miR-122 sensor: 14.0[16.7 µM]

What do the screens show for `COc1ccc2c3c([nH]c2c1)[C@@H](CO)N(C(=O)c1ccccc1)CC31CCN(C(=O)NC(C)C)CC1`?
PGC1a acetyl inh: -1.6
